The source made the active and inactive calls. The calls are words filed in the database; no cut-off is given here.

Sequences of proteins named here, by UniProt entry; tags and fusion partners are left off. A change or cut given only in a name is not applied to a line headed by its entry.
UniProt P11309, whole entry, looked up: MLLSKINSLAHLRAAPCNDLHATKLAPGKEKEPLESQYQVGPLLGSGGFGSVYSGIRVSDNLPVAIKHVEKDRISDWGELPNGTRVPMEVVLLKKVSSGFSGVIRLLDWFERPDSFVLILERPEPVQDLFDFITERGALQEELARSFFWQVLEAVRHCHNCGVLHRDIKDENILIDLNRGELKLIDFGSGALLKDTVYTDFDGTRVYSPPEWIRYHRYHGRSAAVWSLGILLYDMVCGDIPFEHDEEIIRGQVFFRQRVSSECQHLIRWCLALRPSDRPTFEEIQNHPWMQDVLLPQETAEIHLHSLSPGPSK
UniProt P49761: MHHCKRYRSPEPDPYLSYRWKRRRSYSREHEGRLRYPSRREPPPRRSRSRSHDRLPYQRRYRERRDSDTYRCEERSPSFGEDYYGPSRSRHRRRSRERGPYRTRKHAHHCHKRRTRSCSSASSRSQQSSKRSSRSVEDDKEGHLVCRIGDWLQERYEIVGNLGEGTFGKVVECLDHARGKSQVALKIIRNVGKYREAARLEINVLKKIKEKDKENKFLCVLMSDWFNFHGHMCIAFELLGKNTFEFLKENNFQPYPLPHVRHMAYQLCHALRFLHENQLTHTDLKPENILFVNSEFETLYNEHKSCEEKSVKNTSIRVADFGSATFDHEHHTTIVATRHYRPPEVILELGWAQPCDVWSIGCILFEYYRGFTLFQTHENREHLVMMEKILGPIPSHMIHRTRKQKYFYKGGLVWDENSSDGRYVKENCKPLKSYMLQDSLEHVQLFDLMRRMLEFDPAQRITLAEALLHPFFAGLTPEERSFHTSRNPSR
UniProt Q9H1R3: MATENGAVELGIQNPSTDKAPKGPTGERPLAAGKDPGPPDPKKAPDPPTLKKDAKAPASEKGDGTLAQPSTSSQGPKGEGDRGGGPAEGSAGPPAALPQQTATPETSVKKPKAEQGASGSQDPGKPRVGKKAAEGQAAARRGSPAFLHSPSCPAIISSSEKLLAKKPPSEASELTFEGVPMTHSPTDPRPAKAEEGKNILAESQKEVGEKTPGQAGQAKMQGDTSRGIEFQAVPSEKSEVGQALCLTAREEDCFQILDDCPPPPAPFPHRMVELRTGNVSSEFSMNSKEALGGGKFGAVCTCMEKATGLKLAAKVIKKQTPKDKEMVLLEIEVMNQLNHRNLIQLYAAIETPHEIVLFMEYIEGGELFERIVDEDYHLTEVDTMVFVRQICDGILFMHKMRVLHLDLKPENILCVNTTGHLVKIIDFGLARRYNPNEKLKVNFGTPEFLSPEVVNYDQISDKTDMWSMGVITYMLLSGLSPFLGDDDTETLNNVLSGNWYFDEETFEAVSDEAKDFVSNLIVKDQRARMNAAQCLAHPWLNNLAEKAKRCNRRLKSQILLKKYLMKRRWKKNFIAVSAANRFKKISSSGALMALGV
UniProt Q16620, whole entry, looked up: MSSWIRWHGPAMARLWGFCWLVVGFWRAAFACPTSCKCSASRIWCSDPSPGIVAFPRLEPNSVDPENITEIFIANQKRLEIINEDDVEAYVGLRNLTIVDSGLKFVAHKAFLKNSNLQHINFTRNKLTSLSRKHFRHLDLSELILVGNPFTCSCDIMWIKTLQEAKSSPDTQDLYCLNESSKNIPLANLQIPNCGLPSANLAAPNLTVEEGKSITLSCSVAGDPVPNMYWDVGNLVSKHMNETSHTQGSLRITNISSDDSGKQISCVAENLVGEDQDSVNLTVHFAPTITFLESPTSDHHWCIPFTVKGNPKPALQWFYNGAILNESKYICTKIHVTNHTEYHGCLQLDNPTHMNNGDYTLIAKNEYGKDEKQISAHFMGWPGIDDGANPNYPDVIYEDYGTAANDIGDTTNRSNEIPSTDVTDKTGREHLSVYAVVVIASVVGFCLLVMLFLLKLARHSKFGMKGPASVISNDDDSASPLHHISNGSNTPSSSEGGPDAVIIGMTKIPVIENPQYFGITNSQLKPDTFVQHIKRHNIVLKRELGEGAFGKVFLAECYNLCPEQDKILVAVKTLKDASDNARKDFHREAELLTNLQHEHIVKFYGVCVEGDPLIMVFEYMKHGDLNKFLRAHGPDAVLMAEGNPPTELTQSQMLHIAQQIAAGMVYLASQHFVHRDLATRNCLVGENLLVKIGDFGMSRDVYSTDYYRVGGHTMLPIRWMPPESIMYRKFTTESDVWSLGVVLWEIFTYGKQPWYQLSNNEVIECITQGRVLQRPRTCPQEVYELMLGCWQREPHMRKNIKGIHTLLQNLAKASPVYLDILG
UniProt Q00535, whole entry, looked up: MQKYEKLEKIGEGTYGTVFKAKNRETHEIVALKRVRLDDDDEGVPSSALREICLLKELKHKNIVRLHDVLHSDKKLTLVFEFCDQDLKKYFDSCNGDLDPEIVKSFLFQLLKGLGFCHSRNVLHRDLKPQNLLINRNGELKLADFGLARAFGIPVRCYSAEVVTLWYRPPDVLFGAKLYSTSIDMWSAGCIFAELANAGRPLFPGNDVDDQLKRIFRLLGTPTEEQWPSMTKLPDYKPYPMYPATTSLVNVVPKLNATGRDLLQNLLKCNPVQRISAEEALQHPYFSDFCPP
UniProt Q15078: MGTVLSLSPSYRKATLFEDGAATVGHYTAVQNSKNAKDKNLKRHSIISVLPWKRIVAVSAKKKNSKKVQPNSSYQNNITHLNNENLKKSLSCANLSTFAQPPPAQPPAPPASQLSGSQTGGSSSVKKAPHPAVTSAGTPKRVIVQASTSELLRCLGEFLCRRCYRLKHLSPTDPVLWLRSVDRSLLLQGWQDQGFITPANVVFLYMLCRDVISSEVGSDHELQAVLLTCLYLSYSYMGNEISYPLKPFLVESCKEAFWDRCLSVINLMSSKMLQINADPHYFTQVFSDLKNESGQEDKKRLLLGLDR
UniProt Q9HAZ1: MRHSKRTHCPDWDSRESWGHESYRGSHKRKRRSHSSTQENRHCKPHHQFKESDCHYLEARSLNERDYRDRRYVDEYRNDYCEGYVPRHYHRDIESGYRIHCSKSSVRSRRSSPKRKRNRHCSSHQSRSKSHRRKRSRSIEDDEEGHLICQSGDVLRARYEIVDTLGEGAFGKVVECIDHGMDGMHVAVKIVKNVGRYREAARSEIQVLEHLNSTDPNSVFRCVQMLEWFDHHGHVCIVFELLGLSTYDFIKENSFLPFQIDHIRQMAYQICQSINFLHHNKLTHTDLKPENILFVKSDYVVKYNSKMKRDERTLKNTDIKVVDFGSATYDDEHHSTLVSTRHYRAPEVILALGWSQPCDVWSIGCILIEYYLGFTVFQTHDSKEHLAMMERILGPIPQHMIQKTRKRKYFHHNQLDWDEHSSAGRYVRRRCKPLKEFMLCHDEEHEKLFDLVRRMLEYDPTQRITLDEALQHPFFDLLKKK
UniProt P48730: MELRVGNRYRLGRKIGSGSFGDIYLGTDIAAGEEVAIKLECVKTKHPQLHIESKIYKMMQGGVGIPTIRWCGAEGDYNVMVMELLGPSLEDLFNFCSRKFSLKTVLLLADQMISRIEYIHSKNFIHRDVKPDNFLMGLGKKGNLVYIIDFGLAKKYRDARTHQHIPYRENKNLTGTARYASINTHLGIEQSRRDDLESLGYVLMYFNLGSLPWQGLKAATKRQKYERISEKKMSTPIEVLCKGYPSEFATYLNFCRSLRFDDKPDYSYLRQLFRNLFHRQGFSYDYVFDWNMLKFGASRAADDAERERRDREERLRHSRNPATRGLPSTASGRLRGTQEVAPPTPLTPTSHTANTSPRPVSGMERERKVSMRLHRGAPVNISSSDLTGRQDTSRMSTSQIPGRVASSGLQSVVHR
UniProt Q86Z02: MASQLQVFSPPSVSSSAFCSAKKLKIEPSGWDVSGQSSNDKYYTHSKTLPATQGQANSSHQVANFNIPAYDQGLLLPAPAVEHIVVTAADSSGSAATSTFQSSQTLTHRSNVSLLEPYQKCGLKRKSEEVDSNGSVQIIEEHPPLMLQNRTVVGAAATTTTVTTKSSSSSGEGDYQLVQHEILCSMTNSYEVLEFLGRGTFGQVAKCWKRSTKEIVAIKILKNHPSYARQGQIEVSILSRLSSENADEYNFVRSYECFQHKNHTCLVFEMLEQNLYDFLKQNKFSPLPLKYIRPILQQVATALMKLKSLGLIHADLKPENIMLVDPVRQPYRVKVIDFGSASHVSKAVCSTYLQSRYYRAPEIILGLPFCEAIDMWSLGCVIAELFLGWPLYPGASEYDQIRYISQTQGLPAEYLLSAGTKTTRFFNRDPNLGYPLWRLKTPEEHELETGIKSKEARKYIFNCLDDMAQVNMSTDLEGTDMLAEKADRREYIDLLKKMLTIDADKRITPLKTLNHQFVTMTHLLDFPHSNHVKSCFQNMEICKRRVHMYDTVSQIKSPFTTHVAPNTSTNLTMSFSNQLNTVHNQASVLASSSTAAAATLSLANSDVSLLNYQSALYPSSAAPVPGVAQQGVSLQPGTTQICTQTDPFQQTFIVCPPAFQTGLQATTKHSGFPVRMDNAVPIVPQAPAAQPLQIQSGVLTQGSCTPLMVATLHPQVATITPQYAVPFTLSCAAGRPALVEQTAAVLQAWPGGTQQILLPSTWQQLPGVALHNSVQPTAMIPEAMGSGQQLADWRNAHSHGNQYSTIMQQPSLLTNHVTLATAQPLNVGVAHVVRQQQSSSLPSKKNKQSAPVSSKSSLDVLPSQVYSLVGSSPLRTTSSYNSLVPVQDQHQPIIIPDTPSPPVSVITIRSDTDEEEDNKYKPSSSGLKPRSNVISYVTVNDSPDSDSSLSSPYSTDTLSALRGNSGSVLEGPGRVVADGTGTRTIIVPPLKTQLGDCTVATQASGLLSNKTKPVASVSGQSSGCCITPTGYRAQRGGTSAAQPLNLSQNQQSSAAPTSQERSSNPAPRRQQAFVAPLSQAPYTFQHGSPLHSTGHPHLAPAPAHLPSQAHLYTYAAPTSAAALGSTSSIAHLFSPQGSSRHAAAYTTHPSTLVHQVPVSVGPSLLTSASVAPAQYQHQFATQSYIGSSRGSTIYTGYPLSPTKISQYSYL
UniProt P67870, whole entry, looked up: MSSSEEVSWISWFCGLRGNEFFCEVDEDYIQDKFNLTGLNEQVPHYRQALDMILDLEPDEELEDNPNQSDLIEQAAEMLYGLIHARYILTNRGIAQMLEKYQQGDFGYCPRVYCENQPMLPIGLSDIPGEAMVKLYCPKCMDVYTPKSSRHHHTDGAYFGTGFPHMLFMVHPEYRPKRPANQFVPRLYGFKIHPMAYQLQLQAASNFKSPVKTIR
UniProt P68400, whole entry, looked up: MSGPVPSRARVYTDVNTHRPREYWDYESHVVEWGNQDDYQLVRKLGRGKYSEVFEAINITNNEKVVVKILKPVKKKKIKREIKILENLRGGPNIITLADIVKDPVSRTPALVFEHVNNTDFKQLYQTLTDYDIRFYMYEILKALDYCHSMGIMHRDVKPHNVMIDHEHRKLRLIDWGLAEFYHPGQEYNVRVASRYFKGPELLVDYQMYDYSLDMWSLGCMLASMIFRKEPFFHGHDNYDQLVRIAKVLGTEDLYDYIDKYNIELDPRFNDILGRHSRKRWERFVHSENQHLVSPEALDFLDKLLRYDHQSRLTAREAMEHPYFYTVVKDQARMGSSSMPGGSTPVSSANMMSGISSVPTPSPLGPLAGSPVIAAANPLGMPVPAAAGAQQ
UniProt P19784, whole entry, looked up: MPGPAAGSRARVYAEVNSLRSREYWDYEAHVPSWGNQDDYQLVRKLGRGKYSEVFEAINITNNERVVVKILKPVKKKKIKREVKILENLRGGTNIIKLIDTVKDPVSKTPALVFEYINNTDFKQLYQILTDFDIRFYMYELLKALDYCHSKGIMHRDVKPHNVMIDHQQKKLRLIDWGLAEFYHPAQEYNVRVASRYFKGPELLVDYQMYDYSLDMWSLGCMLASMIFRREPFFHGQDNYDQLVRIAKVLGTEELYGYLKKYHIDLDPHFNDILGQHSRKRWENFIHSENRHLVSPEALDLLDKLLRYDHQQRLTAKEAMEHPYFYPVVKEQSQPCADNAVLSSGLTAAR
UniProt Q8NEV1, whole entry, looked up: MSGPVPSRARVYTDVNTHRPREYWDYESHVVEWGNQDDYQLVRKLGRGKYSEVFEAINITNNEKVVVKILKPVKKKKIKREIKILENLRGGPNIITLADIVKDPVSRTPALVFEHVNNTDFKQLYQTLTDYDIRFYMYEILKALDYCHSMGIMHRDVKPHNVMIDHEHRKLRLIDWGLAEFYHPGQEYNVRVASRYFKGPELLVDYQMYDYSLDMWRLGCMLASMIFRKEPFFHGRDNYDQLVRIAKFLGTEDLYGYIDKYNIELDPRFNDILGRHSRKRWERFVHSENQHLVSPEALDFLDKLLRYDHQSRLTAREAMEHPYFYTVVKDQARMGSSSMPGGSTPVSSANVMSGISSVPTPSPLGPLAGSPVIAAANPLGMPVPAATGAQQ

For experiment [1], the target named is Serine/threonine-protein kinase pim-1 (Homo sapiens) (UniProt P11309). The experiment in a line: Inhibition of PIM1 (unknown origin) at 1 uM in presence of ATP relative to control.
In experiment [2] the target is T1, Serine/threonine-protein kinase haspin (Homo sapiens) (UniProt Q8TF76).
T1 sequence (whole entry): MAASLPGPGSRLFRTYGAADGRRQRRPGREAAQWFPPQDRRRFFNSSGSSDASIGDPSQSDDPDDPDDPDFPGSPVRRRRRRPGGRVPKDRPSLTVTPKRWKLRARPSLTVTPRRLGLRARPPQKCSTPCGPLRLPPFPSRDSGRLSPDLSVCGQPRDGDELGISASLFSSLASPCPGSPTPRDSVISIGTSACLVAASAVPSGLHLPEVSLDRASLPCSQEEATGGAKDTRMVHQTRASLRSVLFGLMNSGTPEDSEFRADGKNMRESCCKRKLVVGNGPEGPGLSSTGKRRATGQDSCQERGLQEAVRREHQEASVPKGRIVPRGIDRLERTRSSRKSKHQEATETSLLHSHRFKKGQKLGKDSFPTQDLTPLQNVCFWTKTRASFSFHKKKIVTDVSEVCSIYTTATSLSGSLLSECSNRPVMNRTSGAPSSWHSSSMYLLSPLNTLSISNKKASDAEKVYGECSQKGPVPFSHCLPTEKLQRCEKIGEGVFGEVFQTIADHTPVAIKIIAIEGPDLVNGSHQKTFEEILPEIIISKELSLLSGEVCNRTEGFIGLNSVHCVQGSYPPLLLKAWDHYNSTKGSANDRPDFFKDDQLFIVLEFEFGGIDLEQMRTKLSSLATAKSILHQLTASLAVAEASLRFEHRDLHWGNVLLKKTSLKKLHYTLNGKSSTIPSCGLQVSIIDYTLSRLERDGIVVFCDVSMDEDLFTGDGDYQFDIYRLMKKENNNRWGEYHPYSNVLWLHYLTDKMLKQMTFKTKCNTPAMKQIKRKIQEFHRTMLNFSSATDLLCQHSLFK
Description: Inhibition of Haspin (unknown origin) at 1 uM in presence of ATP relative to control.

Experiment [3] addresses Dual specificity protein kinase CLK3 (Homo sapiens) (UniProt P49761). The experiment in a line: Inhibition of CLK3 (unknown origin) at 1 uM in presence of ATP relative to control.
Experiment [4] deals with Myosin light chain kinase 2, skeletal/cardiac muscle (Homo sapiens) (UniProt Q9H1R3). The experiment in a line: Inhibition of MLCK2 (unknown origin) at 1 uM in presence of ATP.
The target of experiment [5] is BDNF/NT-3 growth factors receptor (Homo sapiens) (UniProt Q16620). The experiment in a line: Inhibition of TRKB (unknown origin) at 1 uM in presence of ATP.
For experiment [6], the target named is Cyclin-dependent kinase 5/CDK5 activator 1 (Homo sapiens) (UniProt Q00535+Q15078). Description: Inhibition of CDK5/p25 (unknown origin) at 1 uM in presence of ATP relative to control. It is filed as protein-complex assay.
The target in experiment [7] is Dual specificity protein kinase CLK4 (Homo sapiens, UniProt Q9HAZ1). The experiment in a line: Inhibition of CLK4 (unknown origin) at 1 uM in presence of ATP relative to control.
Experiment [8] has as its target T2, Dual specificity tyrosine-phosphorylation-regulated kinase 2 (Homo sapiens) (UniProt Q92630).
T2 sequence (whole entry): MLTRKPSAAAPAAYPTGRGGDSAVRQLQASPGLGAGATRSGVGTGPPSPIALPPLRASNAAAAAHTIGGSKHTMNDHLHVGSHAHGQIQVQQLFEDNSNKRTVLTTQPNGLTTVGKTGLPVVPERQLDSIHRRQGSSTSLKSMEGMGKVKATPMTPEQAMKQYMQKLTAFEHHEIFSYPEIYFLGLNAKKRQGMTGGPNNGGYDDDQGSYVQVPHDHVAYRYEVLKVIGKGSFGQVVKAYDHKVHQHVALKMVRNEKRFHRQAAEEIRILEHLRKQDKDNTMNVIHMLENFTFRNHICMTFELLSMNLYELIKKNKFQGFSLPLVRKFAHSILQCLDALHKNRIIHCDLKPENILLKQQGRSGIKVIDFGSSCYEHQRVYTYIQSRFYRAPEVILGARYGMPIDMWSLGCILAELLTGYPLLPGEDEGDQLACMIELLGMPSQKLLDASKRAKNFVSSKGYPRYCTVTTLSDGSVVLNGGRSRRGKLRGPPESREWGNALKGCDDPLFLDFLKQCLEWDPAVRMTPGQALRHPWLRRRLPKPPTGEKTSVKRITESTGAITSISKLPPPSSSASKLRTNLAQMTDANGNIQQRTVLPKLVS
Description: Inhibition of DYRK2 (unknown origin) at 1 uM in presence of ATP relative to control.

Experiment [9] deals with Dual specificity tyrosine-phosphorylation-regulated kinase 1A (Homo sapiens, UniProt Q13627). Description: Inhibition of DYRK1A (unknown origin) at 1 uM in presence of ATP relative to control.
For experiment [10], the target named is SRSF protein kinase 1 (Homo sapiens) (UniProt Q96SB4). Description: Inhibition of SRPK1 (unknown origin) at 1 uM in presence of ATP relative to control.
In experiment [11] the target is Casein kinase I isoform delta (Homo sapiens) (UniProt P48730). The experiment in a line: Inhibition of CK1 delta (unknown origin) at 1 uM in presence of ATP relative to control.
In experiment [12] the target is Homeodomain-interacting protein kinase 1 (Homo sapiens) (UniProt Q86Z02). Description: Inhibition of HIPK1 (unknown origin) at 1 uM in presence of ATP relative to control.
Experiment [13] has as its target T3, Serine/threonine-protein kinase 17A (Homo sapiens) (UniProt Q9UEE5).
T3 sequence (whole entry): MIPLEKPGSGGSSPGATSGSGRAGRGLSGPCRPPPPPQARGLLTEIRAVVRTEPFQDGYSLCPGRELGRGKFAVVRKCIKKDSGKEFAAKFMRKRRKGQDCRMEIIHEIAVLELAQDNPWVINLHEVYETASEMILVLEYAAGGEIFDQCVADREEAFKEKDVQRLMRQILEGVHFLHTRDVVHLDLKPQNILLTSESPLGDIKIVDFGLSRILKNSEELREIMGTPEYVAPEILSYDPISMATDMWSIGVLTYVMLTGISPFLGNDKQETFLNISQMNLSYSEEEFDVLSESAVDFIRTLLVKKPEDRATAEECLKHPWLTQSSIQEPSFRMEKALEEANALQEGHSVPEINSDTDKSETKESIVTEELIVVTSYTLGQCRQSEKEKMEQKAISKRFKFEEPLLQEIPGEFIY
The experiment in a line: Inhibition of STK17A (unknown origin) at 1 uM in presence of ATP relative to control.

Experiment [14] has as its target Casein kinase 2 (Homo sapiens) (UniProt P67870+P68400+P19784+Q8NEV1). The experiment in a line: Inhibition of CK2 (unknown origin) at 1 uM in presence of ATP relative to control. It is filed as protein assay.
Experiment [15] has as its target BDNF/NT-3 growth factors receptor (Homo sapiens) (UniProt Q16620). The experiment in a line: Inhibition of TRKB (unknown origin) at 1 uM in presence of ATP relative to control.

Regarding `COc1ccc2sc(C(=O)NNc3cc(Cl)cc(Cl)c3)cc2c1`, the inhibition was found to be 6% in [1]; 37% in experiment [2]; 30% in experiment [3]; 4% in [6]; 100% in experiment [7]; 10% in experiment [8]. Further, the inhibition came to 77% in [9]; 3% in experiment [10]; 1% in [11]; 3% in experiment [12]; 42% in experiment [13]; 3% in [14]. Also, the inhibition result in experiment [4] and in experiment [5] was “inactive” in each case.
In the case of `COc1ccc2sc(C(=O)NNc3cc(F)cc(F)c3)cc2c1`, the inhibition in [1] was found to be 8%; in [2], 61%; in experiment [15], 1%; in experiment [3], 13%; in [6], 6%; in [7], 99%. Further, the inhibition in [8] is 25%; in experiment [9] it was 70%; in experiment [10] it was 5%; in [11] it was 5%; in [12], 4%; in experiment [13], 50%. For the same molecule, the inhibition in experiment [14] is 4%. In addition, in experiment [4], the inhibition result was “inactive”.

One may read the inhibition as the change of the read-out against control, counted positive when it falls.
